# PMC8145572 (Viruses, 2021)
# Key:
# Format in all cases: cell-based
# [1] = test system: Dengue virus serotype 2 (DENV2), strain New Guinea C; assay: Antiviral evaluation; settings: HUH-7 cells, MOI 0.01, AUC of viral burden over 3 days
# [2] = test system: Dengue virus serotype 2 (DENV2), strain New Guinea C; assay: Antiviral evaluation; settings: HFF-1 cells, MOI 0.1, AUC of viral burden over 2 days
# [3] = test system: Dengue virus serotype 2 (DENV2), strain New Guinea C; assay: Combination drug assay UV-4B and IFN, DENV-infected HUH-7 cells, plaque assay; settings: day 2, 100 IU/mL
# [4] = test system: Dengue virus serotype 2 (DENV2), strain New Guinea C; assay: Antiviral evaluation; settings: SK-N-MC cells, MOI 0.1, AUC of viral burden over 4 days
# [5] = test system: Dengue virus serotype 2 (DENV2), strain New Guinea C; assay: Combination drug assay UV-4B and IFN, DENV-infected SK-N-MC cells, plaque assay
substance,measurement,setting,value
interferon-alpha [IFN],EC50,[1],102.7 IU/mL
same,EC50,[2],163.1 IU/mL
same,"reduction of viral titers, monotherapy",[3],2.5 log10 PFU/mL
same,EC50,[4],86.59 IU/mL
same,"lowering of peak viral titers, monotherapy","[5]; SK-N-MC cells, 100 IU/mL",1.4 log10 PFU/mL
same,"lowering of peak viral titers, monotherapy","[5]; SK-N-MC cells, 10,000 IU/mL",2.5 log10 PFU/mL
